According to ChEMBL document CHEMBL3392964, “Design, synthesis, and evaluation of novel imidazo[1,2-a][1,3,5]triazines and their derivatives as focal adhesion kinase inhibitors with antitumor activity” (J Med Chem, 2015):

Legend:
Format in all cases: functional, cell-based
U-87MG ATCC = assay: Inhibition of colony formation in human U87MG cells after 2 weeks by crystal violet staining-based assay
Method in brief: (§1)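 Seeding: 250 cells per well for HCT-116, 300 for U87MG, MDA-MB-231 and PC-3; incubated overnight, then exposed to a range of concentrations for 2 weeks. Fixed in 4% paraformaldehyde 30 min at room temperature, stained with 0.1% crystal violet. Colonies over 50 cells counted; colony formation rate calculated; IC50 by nonlinear regression.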

HCT-116 = assay: Inhibition of colony formation in human HCT116 cells after 2 weeks by crystal violet staining-based assay; method in brief: as §1
MDA-MB-231 = assay: Inhibition of colony formation in human MDA-MB-231 cells after 2 weeks by crystal violet staining-based assay; method in brief: as §1
PC-3 = assay: Inhibition of colony formation in human PC3 cells after 2 weeks by crystal violet staining-based assay; method in brief: as §1

Measured: inhibition

CNC(=O)c1ccccc1Nc1nc(Nc2cc(OC)c(OC)c(OC)c2)nc2nccn12
active: U-87MG ATCC Dose-dependent effect | HCT-116 = Dose-dependent effect | MDA-MB-231 = Dose-dependent effect | PC-3 = Dose-dependent effect
